Test results published in ChEMBL document CHEMBL1811897, “Nicotinic acetylcholine receptor efficacy and pharmacological properties of 3-(substituted phenyl)-2β-substituted tropanes” (J Med Chem, 2010).

Experiments:
Homo sapiens [1] = species: Homo sapiens; assay: Selectivity for human NET over human DAT
Homo sapiens [2] = species: Homo sapiens; assay: Selectivity for human NET over human ganglionic alpha3beta4alpha5beta2 nAChR
Homo sapiens [3] = species: Homo sapiens; assay: Selectivity ratio for human DAT over human SERT
Homo sapiens [4] = species: Homo sapiens; assay: Selectivity ratio for human DAT over human NET
Homo sapiens [5] = species: Homo sapiens; assay: Selectivity for human DAT over human ganglionic alpha3beta4alpha5beta2 nAChR

SMILES | Ratio IC50 (Homo sapiens [1]) | Ratio IC50 (Homo sapiens [2]) | Ratio IC50 (Homo sapiens [3]) | Ratio IC50 (Homo sapiens [4]) | Ratio IC50 (Homo sapiens [5])
COC(=O)[C@@H]1[C@H]2CC[C@@H](C[C@H]1c1ccc(C)c(F)c1)N2 | 14 | 3500 |  |  | 
Cc1ccc([C@H]2C[C@@H]3CC[C@H]([C@H]2C(=O)OC(C)C)N3C)cc1 |  |  | > 60 | > 60 | > 2000
